# Compound activity (PubChem)
# Mito fusion act: inhibitors of mitochondrial division or activators of mitochondrial fusion | S. cerevisiae fusion-defective mutant growth rescue, CellTiterGlo 48 h | Potency, µM (top dose mostly 46.1 µM), without a hit: top-dose growth rescue (activation), usual class: activators | 320,000 tested, 0.23% active; note: potency is the fitted concentration of half-maximal effect; % of control where 0% means no effect; nearly all actives have a fitted effect of over 45% in size
#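 Read-out: ATP-based luminescence (CellTiterGlo, 10 min ambient) reporting growth of fusion-defective ts yeast after 48 hours at 37C on glycerol/ethanol YPEG medium in the presence of compound.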
# miR-21 reporter: raises the signal of a miR-21 reporter; HeLa miR-21 FLuc reporter, luciferase, 48 h; Potency, µM (top dose mostly 38.3 µM), for inactives: at the highest dose reporter change, positive = more light; AID 2288; 340,000 tested, under 10 active; active = well fitted rising curve with a large enough effect; inconclusive = small, poorly fitted or top-dose-only effect; inactive = no such curve, though single readings can be large or run the other way;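 note: % of control where 0% means no effect; miR-21 action dims this reporter so a rising signal means less miR-21 action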
#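 Luminescence from a firefly luciferase reporter carrying a miR-21 binding site downstream, stably expressed under a CMV promoter in HeLa cells that make miR-21 endogenously, reports miRNA modulation after 48 h compound exposure up to approximately 40uM final.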
# S-ASM inh: blocks human secretory acid sphingomyelinase. P17405. placental ASM, HMU-PC fluorogenic substrate, 60 min. Potency, µM (series often up to 57.5 µM), without a hit: at the highest dose activity change, negative = inhibition, actives largely listed as inhibitors. 340,000 tested, 0.006% active. AID 504937; note: potency is the fitted concentration of half-maximal effect
#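 Fluorescence read-out (Ex 386 nm, Em 447 nm) after stopping the reaction at pH 10. Enzyme: ASM from human placenta; substrate HMU-PC0, 9 uM final; 60 min, 37 °C. Compound preincubation 10 min, ambient temperature.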
# RXFP1 agonist: agonists of human relaxin receptor RXFP1; HEK293T-RXFP1 cAMP TR-FRET, 30 min; response scale: percent of porcine relaxin response, buffer zero; AID 2676; 370,000 tested, 0.3% active; Q9HBX9; Potency, µM (series often up to 57.5 µM), for inactives: at the highest dose activation, usual class: activators; note: potency is the fitted concentration of half-maximal effect; % is set by controls: 0 for no effect and ±100 for the full control effect; nearly all actives have a fitted effect of over 60% in size
#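 Agonist response is measured as cAMP accumulation in an RXFP1-transfected HEK293T line under PDE4 inhibition. Values are scaled between buffer-only and 29 nM porcine relaxin, and EC50s come from standard Hill equation fits.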
# RXFP1 antagonist: antagonists of human relaxin receptor RXFP1. Q9HBX9. HEK293-RXFP1, relaxin-stimulated cAMP HTRF, 30 min; active compounds read low. activity change, negative = inhibition, % at 57.5 µM. 350,000 tested, 0.59% active. AID 1259400;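 active = activity change of -60% or lower, but not beyond a set lower limit; inconclusive = change between -60% and -40%, or beyond the set limit; inactive = change above -40%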; note: % is set by controls: 0 for no effect and ±100 for the full control effect
# ERG Ets-DNA blk: blocks human ERG Ets domain binding to DNA; fluorescence polarization, His-ERG Ets domain / labelled DNA; Potency, µM (titrated, usually from 76.9 µM), without a hit: at the top dose FP activity, negative = inhibition, hits mostly inhibitors; AID 624246; 370,000 tested, 0.028% active; P11308; active = well fitted inhibition curve with a large enough effect in the polarisation, with a control signal flat; inconclusive = small, poorly fitted or top-dose-only effect, or effect the other way, or a change in a side signal; inactive = no such curve, though single readings can be large or run the other way; the % refers to the polarisation;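 note: polarization taken with two DNA probes labelled with fluorescein and Texas red; potency is the fitted concentration of half-maximal effect; % of control where 0% means no effect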
#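 His-tagged ERG Ets domain (1 uM in the protein solution; 300mM KCl, 50mM Tris-HCl, 1mM EDTA, 1mM DTT, pH 7.5) received compound, then a probe mix of 5 nM fluorescein-DNA and 100nM Texas-615-DNA. Fluorescence polarization was read for both dyes.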
# Active calls of the source: *; i = inactive; ? = inconclusive; nt = no result given; ! = a repeat was not active; [ ] = another dose, or the depositor's remark. A selection: hits, their analogues and other compounds. The true share with any hit is near 0.72%. Unless noted, calls come from the whole dose curve; as a rule, active = well fitted curve in the direction sought with a large enough effect; inconclusive = small, poorly fitted or top-dose-only effect, or another doubt; inactive = no such curve, though single readings can be large; an effect the other way counts as inactive or inconclusive.
SMILES,Mito fusion act,miR-21 reporter,S-ASM inh,RXFP1 agonist,RXFP1 antagonist,ERG Ets-DNA blk
Cc1nc2sccn2c(=O)c1CCN1CCC(=C(c2ccc(F)cc2)c2ccc(F)cc2)CC1,?,23%,-9%,4%,-67*,1%
NC(=O)NC1N=C([O][Al])NC1=O (stereo unspecified),nt,nt,nt,nt,5,nt
COc1cccc(/C=C/C(=O)OCC(=O)NC2CC2)c1OC,nt,nt,0%,nt,4,9%
CSc1nc(=O)n2cc(C)ccc2n1,-11%,-14%,1%,21%,9,28µM*
N#C/C(=C\c1cccnc1)C(=O)Nc1cccc2ccccc12,6%,0%,5%,-1%,-67*,3%
COc1ccccc1NC(=O)/C(C#N)=C/c1cccnc1,1%,0%,3%,4%,-1,-2%
CN(CC(=O)Nc1c(Cl)cccc1Cl)C(=O)c1cc(-c2cccs2)nn1-c1ccccc1,20µM*,nt,-3%,7%,10,nt
CN(CC(=O)Nc1ccccc1Cl)C(=O)c1cc(-c2cccs2)nn1-c1ccccc1,11%,nt,nt,10%,-10,9%
CCOc1ccc(-c2nnc(SCC(=O)NC3CCCCC3)nc2-c2ccc(OCC)c(OC)c2)cc1OC,nt,-6%,nt,2%,-34,2%
COc1ccc(-c2nnc(SCC(=O)NC3CCCC3)nc2-c2ccc(OC)c(OC)c2)cc1OC,nt,-1%,nt,0%,-70*,-2%
Cc1cc(Nc2ncc(Cl)cc2Cl)n(-c2ccccc2C)n1,22µM*,-2%,0%,-2%,-4,-6%
O=C(CCCl)NCCc1ccccc1,nt,nt,nt,nt,-9,nt
Cc1nn(C)c(C)c1N1C(=O)c2cccc3c(N)ccc(c23)C1=O,6%,-34%,-14%,7%,1,35µM*
C[C@H]1O[C@@H](O[C@H]2CC[C@@]3(C)[C@H](CC[C@@H]4[C@@H]3C[C@@H](O)[C@]3(C)[C@@H](C5=CC(=O)OC5)CC[C@]43O)C2)C[C@H](O)[C@@H]1O[C@H]1C[C@H](O)[C@H](O[C@H]2C[C@H](O)[C@H](O[C@@H]3O[C@H](CO)[C@@H](O)[C@H](O)[C@H]3O)[C@@H](C)O2)[C@@H](C)O1,nt,nt,nt,nt,-33,nt
CCN(CC)S(=O)(=O)c1nnc(NC(=O)c2ccccc2Cl)s1,nt,-2%,nt,0%,-19,3%
CCN(c1ccc(OC)cc1)S(=O)(=O)c1nnc(NC(=O)c2ccccc2Cl)s1,11%,-3%,-12%,0%,-60*!,0%
CCNC(=S)N1CCN(c2nc(-c3ccc(F)cc3)cs2)CC1,5%,6%,-6%,2%,-9,-6%
CCN(CC)CCCNC(=S)N1CCN(c2nc(-c3ccc(F)cc3)cs2)CC1,-6%,21%,-4%,1%,-74*,-2%
C/C(=N\NC(=O)c1nnn(-c2nonc2N)c1C(C)C)c1cc(C)sc1C,32µM*,-1%,-8%,1%,-3,-4%
CCCc1c(C(=O)N/N=C(\C)c2cc(C)sc2C)nnn1-c1nonc1N,nt,nt,nt,nt,5,nt
CCOC(=O)c1ccc(N2C(=O)c3[nH]nc(-c4ccccc4)c3C2c2ccc(CC)cc2)cc1 (stereo unspecified),nt,?,nt,2%,nt,-2%
CN(C)CC(CCC(CN(C)C)C(=O)c1ccccc1)C(=O)c1ccccc1 (stereo unspecified),-7%,?,2%,1%,-76*,8%
O=C(c1ccccc1)C(CCC(CN1CCOCC1)C(=O)c1ccccc1)CN1CCOCC1 (stereo unspecified),-20%,?,0%,1%,-68*,-11%
c1ccc(C(CN2CCOCC2)c2ccccc2)cc1,-3%,-9%,4%,1%,10,1%
CCOc1ccc(C(=O)C(CCC(CN(C)C)C(=O)c2ccc(OCC)cc2)CN(C)C)cc1 (stereo unspecified),16%,?,-4%,1%,?,-7%
CC(=O)C1=C(O)C(=O)N(Cc2cccnc2)C1c1ccc(C(C)C)cc1 (stereo unspecified),4.5µM*,-7%,0%,20%,7,-3%
Cc1ccc(NC(=O)CN(C)C(=O)COc2ccccc2-c2ccccc2)cc1,nt,nt,-1%,nt,-8,7%
CCc1ccc(C(=O)c2cn(CC(=O)NCCc3ccc(OC)c(OC)c3)c3nc(C)ccc3c2=O)cc1,nt,0%,nt,0%,-13,12%
O=C(c1ccncc1)N(c1ccc2oc3c(c2c1)CCCC3)S(=O)(=O)c1ccc(F)cc1,18µM*,-17%,-6%,0%,-31,4%
COC(=O)c1c(C)oc2ccc(N(C(=O)c3ccncc3)S(=O)(=O)c3ccc(Br)cc3)cc12,1%,-1%,nt,-2%,-8,-1%
O=C(Oc1ccc(N(C(=O)c2ccncc2)S(=O)(=O)c2ccc(F)cc2)cc1)c1ccncc1,-4%,-3%,7%,2%,-90*,-2%
CCCCOc1ccc(CNC(=O)c2ccc(NC(=O)N3CCSc4ncccc43)cc2)cc1,nt,13%,nt,4%,-9,1%
CCc1ccccc1N(C(=O)c1snc(C(N)=O)c1N)C(C(=O)NCC1CCCO1)c1ccc(N(C)C)cc1 (stereo unspecified),0%,0%,42%,?,-24,11%
CCc1ccccc1N(C(=O)c1snc(C(N)=O)c1N)C(C(=O)NCC1CCCO1)c1ccc(C)o1 (stereo unspecified),3%,23%,i,1%,-119*,7%
CC(C)c1ccc(N(C(=O)c2snc(C(N)=O)c2N)C(C(=O)NCC2CCCO2)c2ccc(N(C)C)cc2)cc1 (stereo unspecified),-1%,?,18%,?,-74*,0%
Cc1ccc(N(C(=O)c2snc(C(N)=O)c2N)C(C(=O)NCC2CCCO2)c2ccc(C)o2)c(C)c1 (stereo unspecified),2%,18%,i,2%,-63*,-2%
COc1ccc(N(C(=O)c2snc(C(N)=O)c2N)C(C(=O)NCC2CCCO2)c2ccc(C)o2)cc1OC (stereo unspecified),-2%,-1%,18%[11.5 µM],-2%,-10,17%
Cc1ccccc1N(C(=O)c1snc(C(N)=O)c1N)C(C(=O)NCC1CCCO1)c1ccc(F)cc1 (stereo unspecified),-20%,10%,i,1%,-90*,3%
COc1cc(OC)c(NC(=O)Cc2c(C(=O)O)c(C)cn2C)cc1Cl,nt,-2%,nt,2%,-3,-4%

# In the list so far, 2 contain a cyano group:
SMILES,Mito fusion act,miR-21 reporter,S-ASM inh,RXFP1 agonist,RXFP1 antagonist,ERG Ets-DNA blk
N#C/C(=C\c1cccnc1)C(=O)Nc1cccc2ccccc12,6%,0%,5%,-1%,-67*,3%
COc1ccccc1NC(=O)/C(C#N)=C/c1cccnc1,1%,0%,3%,4%,-1,-2%

# ERG Ets-DNA blk: hit marks shown above
SMILES,Mito fusion act,miR-21 reporter,S-ASM inh,RXFP1 agonist,RXFP1 antagonist,ERG Ets-DNA blk
CSc1nc(=O)n2cc(C)ccc2n1,-11%,-14%,1%,21%,9,28µM*
Cc1nn(C)c(C)c1N1C(=O)c2cccc3c(N)ccc(c23)C1=O,6%,-34%,-14%,7%,1,35µM*
